The results in this text go back to US5241087A (priority 1992, dated 1993).

The structures appear in SMILES notation.

A short description of the series: Dehydrocyanation equilibrium. Conditions: 1M solution exposed to a dehydrocyanation catalyst.

For `N#CC(O)c1ccccc1` (stereo not shown) [Benzaldehyde cyanohydrin], the “conversion to benzaldehyde and hydrogen cyanide at equilibrium” value is on record as “about 7%”.
